Experimental data taken from ChEMBL document CHEMBL4680200.

Protein sequences, listed by entry. Tags and fused reporters are not part of them.
UniProt P33535, whole entry: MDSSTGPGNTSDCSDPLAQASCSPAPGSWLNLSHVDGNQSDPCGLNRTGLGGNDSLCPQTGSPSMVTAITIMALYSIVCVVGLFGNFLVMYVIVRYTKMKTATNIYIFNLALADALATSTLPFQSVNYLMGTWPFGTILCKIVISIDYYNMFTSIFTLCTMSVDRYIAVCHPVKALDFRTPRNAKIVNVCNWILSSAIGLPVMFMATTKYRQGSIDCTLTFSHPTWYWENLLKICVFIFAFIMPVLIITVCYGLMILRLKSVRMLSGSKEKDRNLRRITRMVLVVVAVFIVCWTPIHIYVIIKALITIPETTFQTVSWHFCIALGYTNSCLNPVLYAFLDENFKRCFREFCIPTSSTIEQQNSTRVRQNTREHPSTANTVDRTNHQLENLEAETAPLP
UniProt P33533, whole entry: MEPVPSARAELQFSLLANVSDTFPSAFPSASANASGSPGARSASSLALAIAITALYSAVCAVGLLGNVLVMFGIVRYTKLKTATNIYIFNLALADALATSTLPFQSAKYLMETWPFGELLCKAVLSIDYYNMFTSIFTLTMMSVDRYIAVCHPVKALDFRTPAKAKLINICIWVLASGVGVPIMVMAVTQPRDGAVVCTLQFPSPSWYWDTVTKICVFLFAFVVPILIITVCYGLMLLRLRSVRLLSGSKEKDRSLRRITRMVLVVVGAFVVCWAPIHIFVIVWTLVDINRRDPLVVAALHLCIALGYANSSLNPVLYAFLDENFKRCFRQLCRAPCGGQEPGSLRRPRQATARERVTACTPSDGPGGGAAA
UniProt P41144, whole entry: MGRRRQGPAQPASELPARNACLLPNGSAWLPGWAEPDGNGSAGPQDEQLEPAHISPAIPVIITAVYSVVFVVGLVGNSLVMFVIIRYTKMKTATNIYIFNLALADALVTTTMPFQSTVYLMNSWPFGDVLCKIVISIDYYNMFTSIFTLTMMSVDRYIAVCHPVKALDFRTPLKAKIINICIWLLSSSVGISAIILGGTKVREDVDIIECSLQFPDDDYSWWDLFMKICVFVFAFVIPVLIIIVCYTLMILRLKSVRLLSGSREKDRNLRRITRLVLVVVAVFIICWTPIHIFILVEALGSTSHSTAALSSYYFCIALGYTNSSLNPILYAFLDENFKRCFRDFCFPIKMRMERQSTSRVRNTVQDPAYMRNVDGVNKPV

Tests used:
Mu-type opioid receptor = Mu-type opioid receptor (Rattus norvegicus, UniProt P33535); test: Displacement of [3H]DAMGO from MOR in Wistar rat brain membranes measured after 45 mins by scintillation counting method; settings: strain Wistar
[1] = biological target: Delta-type opioid receptor (Rattus norvegicus, UniProt P33533); test: Displacement of [3H]Ile5'6-deltorphin II from DOR in Wistar rat brain membranes measured after 45 mins by scintillation counting method; settings: strain Wistar
[2] = biological target: Kappa-type opioid receptor (Cavia porcellus, UniProt P41144); test: Displacement of [3H]HS665 from KOR in guinea pig brain membranes measured after 45 mins by scintillation counting method

| SMILES | Ki (Mu-type opioid receptor) [nM] | Ki [1] [nM] | Ki [2] [nM] |
| --- | --- | --- | --- |
| CC(C)(C)[C@](C)(O)[C@H]1CC23CC[C@]1(O)[C@H]1Oc4c(O)ccc5c4[C@]12CCN(CC1CC1)[C@@H]3C5 | 0.218 | 15.7 | 0.257 |
| CC(C)(O)[C@H]1CC23CC[C@]1(O)[C@H]1Oc4c(O)ccc5c4[C@]12CCN(CC1CC1)[C@@H]3C5 | 0.0333 | 1.49 | 0.024 |
